Sequences of proteins named here, by UniProt entry; tags and fusion partners are left off.
UniProt P30542, whole entry: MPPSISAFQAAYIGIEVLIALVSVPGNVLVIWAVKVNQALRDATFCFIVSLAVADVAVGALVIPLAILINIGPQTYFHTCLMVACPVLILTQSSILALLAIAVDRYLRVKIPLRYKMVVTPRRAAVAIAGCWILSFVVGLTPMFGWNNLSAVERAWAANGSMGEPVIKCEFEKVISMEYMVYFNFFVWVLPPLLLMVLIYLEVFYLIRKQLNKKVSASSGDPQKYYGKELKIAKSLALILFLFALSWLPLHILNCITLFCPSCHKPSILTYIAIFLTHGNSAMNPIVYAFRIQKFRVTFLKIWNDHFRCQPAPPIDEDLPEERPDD

According to patent publication US8501708B2, “Adenosine compounds and their use thereof” (Inotek Pharmaceuticals Corporation, priority 2011, dated 2013):

Molecular target: human recombinant A1 adenosine receptor (Homo sapiens (Human), UniProt P30542)
Test: Adenosine receptor binding, displacement of specific [3H]CCPA binding
Settings: [3H]CCPA displacement, CHO cells stably transfected with human recombinant A1 adenosine receptor
Text: The compounds were studied in binding assays to determine their selectivity and potency to the A1, A2a and A3 adenosine receptors.

`OC[C@H]1O[C@@H](n2cnc3c(N[C@H]4CCC[C@@H]4OCc4cccc(F)c4)ncnc32)[C@H](O)[C@@H]1O` [Compound 8, (2R,3R,4S,5R)-2-(6-((1S,2S)-2-(3-fluorobenzyloxy)cyclopentylamino)-9H-purin-9-yl)-5-(hydroxymethyl)tetrahydrofuran-3,4-diol] and `OC[C@H]1O[C@@H](n2cnc3c(N[C@@H]4CCC[C@H]4OCc4cccc(F)c4)ncnc32)[C@H](O)[C@@H]1O` [Compound 19, (2R,3R,4S,5R)-2-(6-((1R,2R)-2-(3-fluorobenzyloxy)cyclopentylamino)-9H-purin-9-yl)-5-(hydroxymethyl)tetrahydrofuran-3,4-diol] are within 1.5-fold of each other in Ki: 3.61 nM for the first, 3.53 nM for the second.

Work on `OC[C@H]1O[C@@H](n2cnc3c(N[C@@H]4CCC[C@H]4OCc4ccc(F)cc4)ncnc32)[C@H](O)[C@@H]1O` [Compound 20, (2R,3R,4S,5R)-2-(6-((1R,2R)-2-(4-fluorobenzyloxy)cyclopentylamino)-9H-purin-9-yl)-5-(hydroxymethyl)tetrahydrofuran-3,4-diol] yielded a Ki of 6.08 nM.
